According to US20170349533A1, “STABLE SOLID FORMS OF ENCLOMIPHENE AND ENCLOMIPHENE CITRATE” (F.I.S.- FABBRICA ITALIANA SINTETICI S.P.A, priority 2014, published 2017):
Read-outs that look alike come from different tables or passages of the source.

Settings: room temperature, 95% RH

Row | SMILES | outcome of comparative stability studies (listed as Enclomiphene having non-needle crystals) | outcome of comparative stability studies
1 | CCN(CC)CCOc1ccc(/C(=C(/Cl)c2ccccc2)c2ccccc2)cc1.O=C(O)CC(O)(CC(=O)O)C(=O)O [Enclomiphene citrate having non-needle crystals] [trans-Clomiphene monocitrate] | fails the stability studies | –
2 | CCN(CC)CCOc1ccc(/C(=C(/Cl)c2ccccc2)c2ccccc2)cc1.O=C(O)CC(O)(CC(=O)O)C(=O)O [Enclomiphene citrate] | – | remains thermodynamically stabile
